These are literature values, as cited in patent publication US20100092389A1 (The General Hospital Corporation, priority 2008, published 2010).

≈ marks a conversion by molar mass, not a printed value.

For the data set the following is noted: cited from earlier work.

Turning to `CC1(C)C(/C=C/C=C/C=C/C=C2\N(CCCCS(=O)(=O)O)c3ccc4ccccc4c3C2(C)C)=[N+](CCCCS(=O)(=O)[O-])c2ccc3ccccc3c21` [ICG, Indocyanine green], the solubility in water is 1000 µg/mL (≈ 1330 µM).
